Results as given in US20090054338A1, “Synergisms between repartitioning and immunomodulating compounds” (priority 2007, published 2009).
Read-outs that look alike come from different tables or passages of the source.

Legend:
[1] = not given; remark: listed apart in the source

**Q.** For beta 1.3/1.6 D-glucan [Agrastim®], which “pre-systemic metabolism in cattle” value (cattle rumen, concluded from the in vitro and in vivo studies) is on record?
**A.** The value was “insignificant pre-systemic metabolism”.

**Q.** And the “time to clear the rumen” value (in vivo, cattle)?
**A.** The value was at most 2 h.

**Q.** What about the “degraded after incubation in rumen fluid” value ([1]; 2 hours incubation in rumen fluid from cattle) of the same substance?
**A.** The value was “not more than 3%”.

**Q.** And the “degraded after incubation in rumen fluid” value ([1]; 4 hours incubation in rumen fluid from cattle)?
**A.** Its value is “not more than 15%”.

**Q.** What about the “Remaining beta-glucan (%)” value ([1]; incubation period 0.5 hrs in cattle rumen fluid) of the same substance?
**A.** The value was 98%.

**Q.** And the “Remaining beta-glucan (%)” value ([1]; incubation period 2.0 hrs in cattle rumen fluid)?
**A.** Its value is 97%.

**Q.** And the “Remaining beta-glucan (%)” value ([1]; incubation period 4.0 hrs in cattle rumen fluid)?
**A.** The value was 85%.

**Q.** And the “Remaining beta-glucan (%)” value ([1]; incubation period 8.0 hrs in cattle rumen fluid)?
**A.** The value was 60%.

**Q.** What about the “Remaining beta-glucan (%)” value ([1]; incubation period 12.0 hrs in cattle rumen fluid) of the same substance?
**A.** The value was 20%.
